# Calls of active or inactive are those of the source. No rule for the calls is given here.
# The chains behind the UniProt entries cited, without tags or fusion partners.
# UniProt P36888, whole entry, looked up: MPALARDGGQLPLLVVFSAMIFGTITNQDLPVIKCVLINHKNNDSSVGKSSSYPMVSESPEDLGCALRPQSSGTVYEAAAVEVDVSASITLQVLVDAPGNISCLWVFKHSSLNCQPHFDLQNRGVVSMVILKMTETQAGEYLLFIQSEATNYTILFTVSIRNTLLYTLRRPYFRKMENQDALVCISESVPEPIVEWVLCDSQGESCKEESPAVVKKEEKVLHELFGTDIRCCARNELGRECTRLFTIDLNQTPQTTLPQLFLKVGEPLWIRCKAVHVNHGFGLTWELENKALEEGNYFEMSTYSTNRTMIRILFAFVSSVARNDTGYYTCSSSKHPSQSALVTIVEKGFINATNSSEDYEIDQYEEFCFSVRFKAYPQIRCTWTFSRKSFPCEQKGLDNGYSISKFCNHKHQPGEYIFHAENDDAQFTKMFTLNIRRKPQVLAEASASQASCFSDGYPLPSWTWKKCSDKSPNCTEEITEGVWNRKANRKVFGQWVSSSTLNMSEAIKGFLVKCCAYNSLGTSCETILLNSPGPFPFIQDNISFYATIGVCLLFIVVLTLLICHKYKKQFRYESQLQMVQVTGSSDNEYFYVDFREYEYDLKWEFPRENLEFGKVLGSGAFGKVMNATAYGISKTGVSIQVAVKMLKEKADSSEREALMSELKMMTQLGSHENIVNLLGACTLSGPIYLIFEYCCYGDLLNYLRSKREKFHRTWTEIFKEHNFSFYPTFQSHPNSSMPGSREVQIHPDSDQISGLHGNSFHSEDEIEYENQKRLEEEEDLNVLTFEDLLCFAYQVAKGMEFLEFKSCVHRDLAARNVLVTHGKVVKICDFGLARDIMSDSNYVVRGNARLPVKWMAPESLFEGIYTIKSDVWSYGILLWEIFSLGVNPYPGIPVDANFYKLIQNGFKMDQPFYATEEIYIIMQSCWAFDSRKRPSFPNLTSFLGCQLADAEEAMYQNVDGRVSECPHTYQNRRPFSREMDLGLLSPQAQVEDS
# Molecular target: Receptor-type tyrosine-protein kinase FLT3 (Homo sapiens) (UniProt P36888)
# Experiment: inhibitors of Homo sapiens fms-like tyrosine kinase 3, primary HTS, cell-free, LANCE Ultra TR-FRET, NPC library from NCATS (AID 1117356)
# Conditions: recombinant FLT3, LANCE Ultra TR-FRET kinase assay, stronger effect = higher value
compound,measurement,setting,value
CN(CCCl)CCCl,inhibition,at 20 µM,inactive: -20.2%
same,inhibition,"inhibition, at 0.2 µM",-38.5%
same,inhibition,"inhibition, at 2 µM",-9.42%

# Reference: PubChem BioAssay AID1117356 (Cheminformatics & Chemogenomics Research Group (CCRG), …, 2015)
